# Yeast mating assay B: variants of the scFv Ab-14

The measurements come from Li et al. 2023 (doi:10.1038/s41467-023-39022-2) through the FLAb antibody collection.

The target is the same throughout: PDVDLGDISGINAS, from the HR2 region of SARS-CoV-2 spike.

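Designed CDR sequences, proposed from the first random library and measured here. Several design methods are mixed in this list. The assay is AlphaSeq: two haploid yeast populations carry antibody and antigen on their surface. Mating (16 h, 30 °C) was followed by selection of diploids and sequencing of their barcodes. A regression on co-assayed BCL2-family reference pairs converts the normalised counts of each replicate to an apparent Kd. The assay was run in six technical replicates.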

The variants keep the heavy chain, the linker and the frameworks of Ab-14 (scFv order VH, a 15-residue (Gly4Ser)3 linker, VL).
VH: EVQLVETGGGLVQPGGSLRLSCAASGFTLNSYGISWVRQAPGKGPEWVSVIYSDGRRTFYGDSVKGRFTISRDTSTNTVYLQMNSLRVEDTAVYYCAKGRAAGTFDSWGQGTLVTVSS
VL: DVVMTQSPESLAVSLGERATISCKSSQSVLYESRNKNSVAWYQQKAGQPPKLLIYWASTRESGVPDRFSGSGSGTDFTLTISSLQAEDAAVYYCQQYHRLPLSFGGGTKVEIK

Variants are written as CDR1, CDR2 and CDR3 of the light chain (limits as in the source). Parent: KSSQSVLYESRNKNSVA, WASTRES, QQYHRLPLS. Variants here have more than six changes. The read-out is the apparent dissociation constant on a log10 scale (nM): the lower, the stronger. Replicates are averaged; those with no signal do not enter the mean. A pair that was not seen in any replicate is written "nd"; this usually means weak binding, but a binder can also be missed. Values of this round are not directly comparable with the first-round values of the same sequences.

With HVHSLMAIWQEISNNVA | DAQNRNA | QQYFRLPLA the result was 1.55 (2 of 6 replicates). With QLQFLDVQYGVKEQAIA | EENQRHQ | QHYFRLPLS the result was 2.48 (5 of 6 replicates). For TISQSMLYLSNLKNSVA | QAETREQ | QQYHRLPIS, the assay gave 1.71 (5 of 6 replicates). The variant MISEVMNTLTRHGNNVA | DLAERED | QQYFRLPLS gave 1.38 (6 of 6 replicates). The variant KLYERGEISSKVDRNIA | EMSTRCE | QSYQRLPLS gave 0.61 (6 of 6 replicates). The variant TIGGTLMYGMRNRSNVA | EVSQRLN | QQYDRLPLF showed 1.15 (6 of 6 replicates). The variant KLSVSTSYLSVNKNSVA | EMTTREN | QQYDRLPLS gave 0.71 (6 of 6 replicates).

For KIYQSVMETSRNKNNVA | EVSTLPD | QQYHRLPLS, the assay gave 0.02 (6 of 6 replicates). The variant KLEGSNLYESRNGNSVA | NASTRYS | QQYHRLPLS showed -0.53 (6 of 6 replicates). The variant QLRDDIWADGMNKQSIA | ANEVSKD | QQYNRLPLS showed 0.60 (1 of 6 replicates). The variant KMEQGTLYESRNKGSVA | GASVRES | QQYHRLPLS gave 0.31 (6 of 6 replicates). For KLPQSWLYESANSNSVA | HASQRED | QQYHRLPLS, the assay gave -0.01 (6 of 6 replicates). The variant KLSMSMLMESRVKNSVA | ENSTREE | QHYHRLPLS showed 2.18 (5 of 6 replicates). With MLSDLVKMGSRNTNSVA | DNSTRGD | QQYDRLPLS the result was 2.27 (1 of 6 replicates).

The variant IISQSMLYESATHNSIA | QTSTREE | QQYNHLPLS showed 0.30 (6 of 6 replicates). With ILSQMLLTAGNKHSSVA | QANNREE | QQYHRLPLS the result was 1.81 (6 of 6 replicates). The variant KWSQEVDLESRNDNSVA | NASCRED | QQYHRLPLS showed 1.04 (6 of 6 replicates). With KVSQGMWYESRMKNSVA | NASQREE | QQYHRLPLQ the result was -0.12 (6 of 6 replicates). The variant RLSALSGIQEVNRNSVA | QNSTREQ | QQYDRLPLS gave nd (0 of 6 replicates). The variant LLSQSSGYEQRNKNSVA | DASQRLS | QQYHRLPLS showed -0.24 (6 of 6 replicates). The variant KLTHPTDLWLNHVSNIA | DANISVE | QQYYQLPLT showed 0.75 (6 of 6 replicates).

With KFFGGIPEQERDDYSIA | KGTLRED | QQYQRLPLS the result was 0.35 (6 of 6 replicates). The variant KVYILDDGGDRNKNSVA | HASLRES | QQYHRLPLS gave 0.69 (6 of 6 replicates). The variant TISELYNQAIGMRNNVA | NNQTRED | QQYARLPLS showed 2.03 (2 of 6 replicates). The variant KIDGQRSYQGGRERAIA | DATIRFR | QQYARLPLV gave 1.02 (6 of 6 replicates). For MISQSFLIGMKAQNSVA | QTSTRES | QQYDRLPLS, the assay gave 0.20 (6 of 6 replicates). For MISQLMNMGQFAINSVA | QASLRCN | QQYDRLPLM, the assay gave 1.53 (2 of 6 replicates). The variant KLSIMYQHTSRQKNNIA | ERSTRES | QQYHHLPLS showed 1.07 (6 of 6 replicates).

For KLSSEYFESYGERQAVA | ENEATMN | QQYSLLPLS, the assay gave 1.88 (5 of 6 replicates). The variant KFAGGLDYNTAHKSAIA | HADIRNI | QQYFRLPLD showed 1.43 (6 of 6 replicates). For QFSMNLEIYGQEQWAVA | MGEMRTE | QQYHKLPLS, the assay gave 1.57 (2 of 6 replicates). For KISMYSNMTFEASNNVA | EMVTREK | QQYNRLPLS, the assay gave 1.65 (6 of 6 replicates). The variant KVSQSVMMLSRNKNSVA | DNSTSGS | QQYDRLPLS showed 2.98 (2 of 6 replicates). For MLSQMWGIGMKAKNSVA | QASMRFN | QQYDRLPLI, the assay gave 1.89 (6 of 6 replicates). The variant KLDQSGLYGSRNKNSVA | HASYRES | QQYHRLPLY showed 0.83 (6 of 6 replicates).

The variant KISMLSNQTFSQSNNVA | EMVTRER | QQYNRLPLS gave 1.32 (6 of 6 replicates). With MFSQLVYTGSRTKNAVA | QASTREN | QQYHRLPLI the result was 1.31 (6 of 6 replicates). With TIDDEEPSEGLKWNSIA | GVATRLQ | QQYARLPLI the result was 0.59 (6 of 6 replicates). For SLAYTQHFGQSQEKAIA | EVATREQ | QQYFRLPLG, the assay gave 0.60 (6 of 6 replicates). The variant MVNGIMDHLSKQHNNVA | ETTTREE | QQYERLPLS showed 0.45 (6 of 6 replicates). For TLYGLSNSMSKNKNSVA | EMTTREK | QQYDRLPLM, the assay gave 0.94 (6 of 6 replicates). The variant MITEGQLGENKNSSNIA | SQNIKTA | QQYQRLPLT gave 1.88 (2 of 6 replicates).

For KVFPSGGMLSRNKNSVA | DASTRES | QQYHRLPLS, the assay gave 0.00 (6 of 6 replicates). With KLMNSMLYESRNVNNVA | NASQREL | QQYHRLPLS the result was -0.05 (6 of 6 replicates). With KLYQSVGTMMHNKQSIA | DMERRED | QQYHRLPLS the result was 1.44 (6 of 6 replicates). The variant HISTSMRYESSLKNAIA | NSQTRES | QQYHRLPLS showed 0.06 (6 of 6 replicates). For KLYDMAAVTMNNIRNVA | DNSTREE | QQYHRLPLS, the assay gave 0.95 (6 of 6 replicates). The variant HMSMLTLGGMRSRNSVA | QMTTREN | QQYDRLPLS gave 0.85 (6 of 6 replicates). With KLDYQADMYGVQCNNVA | HADIREP | QQYFKLPLN the result was 0.75 (6 of 6 replicates).

With IISWVDAYESRNKNSIA | DQSTRGS | QQYDRLPLS the result was 0.90 (6 of 6 replicates). The variant KLDMHIPSQWEWKASIA | GTTLRLT | QDYARLPLS showed nd (0 of 6 replicates).

Nonspecific signal, from three strains lacking the peptide, appeared in 4% of pairings of all light chain designs, centred on 2.64 (5% of these signals below 1.59); values are not corrected for it. Of ten entries with the parent sequence, four were seen in most replicates (averages 0.34 to 2.37), three in one and three in none, so single entries are noisy. In the paper, a design with two or fewer of six values counts as a poor binder.